# Reference: PubChem BioAssay AID624267 (The Scripps Research Institute Molecular Screening Center, 2012)
# Chains of the proteins cited; added tags and fusions are not shown.
# UniProt O43353, whole entry: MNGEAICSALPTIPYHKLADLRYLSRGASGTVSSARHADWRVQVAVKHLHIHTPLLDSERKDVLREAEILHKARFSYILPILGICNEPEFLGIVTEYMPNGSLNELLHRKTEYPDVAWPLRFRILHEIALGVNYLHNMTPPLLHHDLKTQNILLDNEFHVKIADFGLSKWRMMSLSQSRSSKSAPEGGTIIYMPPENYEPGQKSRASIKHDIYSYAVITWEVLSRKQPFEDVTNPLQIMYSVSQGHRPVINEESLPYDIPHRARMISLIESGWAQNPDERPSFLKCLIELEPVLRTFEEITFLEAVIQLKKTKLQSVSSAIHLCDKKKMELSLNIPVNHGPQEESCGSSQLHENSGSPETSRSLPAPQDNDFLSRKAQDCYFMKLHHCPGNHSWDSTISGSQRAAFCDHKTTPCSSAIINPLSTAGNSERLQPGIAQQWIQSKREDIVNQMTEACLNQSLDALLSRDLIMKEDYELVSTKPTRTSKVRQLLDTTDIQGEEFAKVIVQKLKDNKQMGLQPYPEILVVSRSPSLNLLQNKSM
# The entries are a selection whose mix differs from that of the whole data set. The source made the active and inactive calls. No stated cut-off is given here; in the data, active means inhibition above about 21%; inactive means the rest.
# Target: Receptor-interacting serine/threonine-protein kinase 2 (Homo sapiens) (UniProt O43353)
# Experiment: NOD2-RIPK2 binding disruptors in cells, primary screen, fluorescence, CHO cells, BLA complementation (AID 624267);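 further: 0% = vehicle only and 100% = reference blocker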
# Settings: CHO BLA complementation NOD2-RIPK2, CCF4 ratio; at 4.98 µM; stronger effect = higher value
row,SMILES,inhibition
1,CCC(=O)N(c1ccccc1)C1(COC)CCN(CCn2nnn(CC)c2=O)CC1,inactive: -0.55%
2,CCC(=O)N(c1ccccc1)C1(COC)CCN(CCc2cccs2)CC1,inactive: 0.93%
